{"source": "patent US7449114B2", "about": "“Halogenated solvent remediation” (SRP Technologies, Inc., priority 2000, dated 2008)", "origin": "cited, not measured here", "details": "surfactant concentration 1%; cited from earlier work", "data": [{"substance": "Nonylphenol ethoxylate", "values": [{"measurement": "PCE Solubilized", "value": "1,300 mg/l"}]}]}
